Literature values, collected in patent US7314882B2, “Bicyclic heterocycles as cannabinoid receptor modulators” (Bristol-Myers Squibb Company, priority 2005, dated 2008).

Legend:
smoking behavior = details: highest dose; 14.8% for placebo
[1] = test system: body weight and adipose tissue mass; details: chronic administration for two weeks

Row | Compound | patients who stayed abstinent from cigarette smoke (smoking behavior) [%] | adipose tissue mass [1] | body weight [1]
1 | Cc1c(C(=O)NN2CCCCC2)nn(-c2ccc(Cl)cc2Cl)c1-c1ccc(Cl)cc1 [SR-141716] | 30.2 |  | 
2 | AM-251 |  | decreased adipose tissue mass | substantial body weight reduction
